This assay concerns 4T1 tumor. Put plainly: 4T1 tumor model: IR with compound 1, cGAMP and/or anti-CTLA-4, tumor volume and survival. It is filed as in vivo, mouse. As for the experimental part: Tumor volumes were recorded every other day.
Where [1] appears, read: 20 Gy IR, compound 1 in addition to cGAMP intratumorally on day 2, 4 and 7.

On to `COc1cc2ncnc(N3CCC(CCP(=O)(O)O)CC3)c2cc1OC` [Compound 1], for which, under setting [1], the survival result is “prolonged survival” and the tumor shrinkage entry was “synergistically shrunk tumors”. Moreover, the “tumor shrinkage effect over IR treatment” value (20 Gy IR, single agent intratumorally on day 2, 4 and 7 after IR (100 μL of 100 μM compound 1 or 10 μg cGAMP)) is given as “enhanced tumor shrinkage effects of IR treatment, although not significantly”. Also, the “anti-tumor effect (survival)” value (IR pretreatment, 1 mM compound 1 intratumorally with 200 μg anti-CTLA-4 intraperitoneally) was “exerted significant synergistic effects”. For the same molecule, where the note is “without IR, 1 mM compound 1 intratumorally with 200 μg anti-CTLA-4 intraperitoneally”, the survival result is “had no effect on prolonging survival”.

The values are drawn from patent publication US20230190927A1, “ENPP1 INHIBITORS AND METHODS OF MODULATING IMMUNE RESPONSE” (Angarus Therapeutics, Inc., priority 2020, published 2023).
